The source of these data is patent US10806795B2, “Bispecific anti-hapten/anti-blood brain barrier receptor antibodies, complexes thereof and their use as blood brain barrier shuttles” (Hoffmann-La Roche Inc., priority 2014, dated 2020).

The subject of experiment [1] is hCMEC/D3 cells as TfR expressing BBB-derived cell line. The experiment is described as follows: FACS analysis of simultaneous cell surface and payload binding. Type of experiment: cell-based, human. As to conditions: Dig-Cy5 as fluorescent payload. An excerpt: To enable blood brain barrier-shuttle functionality of the bispecific antibodies, they must simultaneously bind to the blood brain barrier receptor on endothelial cells of the blood brain barrier, and to the haptenylated payloads to be shuttled. To evaluate this functionality of the hapten-binding bispecific antibodies as reported herein, simultaneous cell surface and payload binding was addressed by FACS analyses. For these analyses, cell binding of the blood brain barrier-shuttle module (=bispecific antibody) was detected by phytoerythrin-labeled IgG recognizing secondary antibodies. Simultaneous payload binding was detected by application of a haptenylated fluorescent payload (digoxigenylated Cy5; DIG-Cy5 (see above)). The results of the FACS analysis, using hCMEC/D3 cells as TfR expressing BBB-derived cell line and Dig-Cy5 as fluorescent payload are shown in FIG. 49: both transferrin receptor binding bispecific antibodies bind to hCMEC/D3 as shown by the anti-IgG-PE associated signals. Similarly, both bispecific antibodies also and simultaneously bind Dig-Cy5 as shown by cell-associated Cy5 attributable signals.

Experiment [2] has as its system brain endothelial cells (hCMEC/D3). The experiment is described as follows: Transwell assay of cell binding, transcytosis and release of shuttle modules (IgG ELISA). As to conditions: incubated apically 1 h at 37° C., antibody quantified by IgG ELISA over time. Type of experiment: cell-based, human. The text has this:
We used brain endothelial cells (hCMEC/D3) to investigate cell binding and transcytosis of the shuttle modules as reported herein. Previous studies (Crepin et al., 2010; Lesley et al., 1989, WO 2012/075037, WO 2014/033074) reported that valency and affinity of TfR binding antibodies influence efficacy of binding to, transcytosis though, and release from endothelial cells of the blood brain barrier. To investigate cell binding and transcytosis in hCMEC/D3, hCMEC/D3 cells cultured on filter inserts were incubated apically with the bispecific antibody or parent antibody (without hapten-binding scFvs as controls) for 1 h at 37° C. Cell monolayers were washed at RT in serum-free medium apically (400 μl) and basolaterally (1600 μl) three times for 3-5 min. each. All wash volumes were collected to monitor efficiency of removal of the unbound ligand or antibody. Pre-warmed medium was added to the apical chamber and the filters transferred to a fresh 12 well plate (blocked overnight with PBS containing 1% BSA) containing 1600 μl pre-warmed medium. At this point, cells on some of the filters were lysed in 500 μl RIPA buffer (Sigma, Munich, Germany, # R0278) in order to determine specific uptakes. […] The content of antibody in the samples was quantified using a highly sensitive IgG ELISA.
(ELISA stands for enzyme-linked immunosorbent assay.)

B1: CD33-Dig: control bispecific antibody recognizing an antigen not present in detectable amounts on hCMEC/D3 (antibody)
heavy: EVQLVQSGAEVKKPGSSVKVSCKASGYTITDSNIHWVRQAPGQSLEWIGYIYPYNGGTDYNQKFKNRATLTVDNPTNTAYMELSSLRSEDTAFYYCVNGNPWLAYWGQGTLVTVSSASTKGPSVFPLAPSSKSTSGGTAALGCLVKDYFPEPVTVSWNSGALTSGVHTFPAVLQSSGLYSLSSVVTVPSSSLGTQTYICNVNHKPSNTKVDKKV[skipping human IgG1 Fc]GGGGSGGGGSQVQLVESGGGLVKPGGSLRLSCAASGFTFSDYAMSWIRQAPGKCLEWVSSINIGATYIYYADSVKGRFTISRDNAKNSLYLQMNSLRAEDTAVYYCARPGSPYEYDKAYYSMAYWGQGTTVTVSSGGGGSGGGGSGGGGSDIQMTQSPSSLSASVGDRVTITCRASQDIKNYLNWYQQKPGKAPKLLIYYSSTLLSGVPSRFSGSGSGTDFTLTISSLQPEDFATYYCQQSITLPPTFGCGTKVEIK
light: DIQLTQSPSTLSASVGDRVTITCRASESLDNYGIRFLTWFQQKPGKAPKLLMYAASNQGSGVPSRFSGSGSGTEFTLTISSLQPDDFATYYCQQTKEVPWSFGQGGTKVEVKEIKRTVAAPSVFIFPPSDEQLKSGTASVVCLLNNFYPREAKVQWKVDNALQSGNSQESVTEQDSKDSTYSLSSTLTLSKADYEKHKVYACEVTHQGLSSPVTKSFNRGEC
Consider B1, for which the “cell binding (anti-IgG-PE signals) and simultaneous Dig-Cy5 binding (cell-associated Cy5 signals)” value in experiment [1] is recorded as “not generate relevant signals with anti-IgG antibody nor with Dig-Cy5”. In addition, the “binding to cells and release to apical or basolateral compartments” value in experiment [2] is “do not bind to these cells and are therefore also not released over time into apical or basolateral compartments”.
